Results on one substance are retold here after US3994925A, “Salt of the silymarin group with aminopolyhydroxy alcohols” (Dr. Madaus & Co., priority 1973, dated 1976).

For the data set, the system named is dogs. The conditions noted are these: dog, in vivo, iv.

In turn, “1-methylamino-glucose salts of the Silymarin group material [SMG1]” gave a dosage tolerance of 200 mg/kg.
